Measured values as given in published antibiotic growth screens (doi:10.1038/s41589-023-01349-8).
The other results are listed elsewhere or left out.

Tested on: A. baumannii ATCC 17978
Assay: relative growth (fraction of control); higher = less inhibition
Details: 50 µM

Compound	relative growth
CCCN1CCC2(CC1)NC(=O)N(CC(=O)N1CCN(C(=O)OCC)CC1)C2=O	1.02
CC(C)NC(=O)N[C@@H]1C=C[C@@H](CC(=O)O)O[C@H]1CO	1.14
C=C[C@H]1CN2CC[C@H]1C[C@@H]2[C@H](O)c1ccnc2ccc(OC)cc12	0.976
CN1C(=O)CC(C)(c2ccccc2)C1=O (stereo not drawn)	0.962
NC(=O)NCC#Cc1ccc2c(c1)[C@]1(C(=O)N2)[C@H](c2ccc(O)cc2)N2[C@H](c3ccccc3)[C@H](c3ccccc3)OC(=O)[C@H]2[C@@H]1C(N)=O	0.964
COCC#Cc1cnc2c(c1)C(=O)N([C@H](C)CO)C[C@H](C)[C@H](CN(C)C(=O)Nc1cc(F)ccc1F)O2	1.04
NNC(=O)Cc1nc2ccccc2[nH]1	0.719
COc1ccc(S(=O)(=O)N(C)C[C@@H]2Oc3c(NC(=O)Nc4cccc5ccccc45)cccc3C(=O)N([C@@H](C)CO)C[C@H]2C)c(OC)c1	0.862
C[C@H]1CN([C@@H](C)CO)S(=O)(=O)c2ccc(-c3cccc(C(=O)N(C)C)c3)cc2O[C@H]1CN(C)C(=O)Cc1ccccn1	0.95
O=C(C[C@H]1C[C@H]2c3cc(NC(=O)C4CCOCC4)ccc3O[C@H]2[C@H](CO)O1)NCc1ccc2c(c1)OCO2	1.04
Cc1ccc(S(=O)(=O)NCC[C@H]2CC[C@@H](NS(=O)(=O)c3ccccc3Cl)[C@@H](CO)O2)cc1	0.905
Cc1cccc(C)c1NC(=O)c1ccccc1C(=O)O	1.04
NNC(=O)c1ccccc1O	0.751
CC(C)COc1c[nH]c(CO)cc1=O	1.03
FCOC(C(F)(F)F)C(F)(F)F	0.949
O=C(O)c1cc(O)c2cccc(O)c2n1	0.895
CN(C)CC(=O)N[C@H]1CC[C@@H](CCn2cc(CN(C)C)nn2)O[C@H]1CO	1.01
CC(C)NC(=O)N[C@@H]1CC[C@@H](CCN)O[C@@H]1CO	1.08
Cc1nc(C2C(=N)N([C@H]3CS(=O)(=O)C[C@@H]3O)CC2=O)sc1C (stereo partly drawn)	0.916
O=C(CCCCCCC(=O)Nc1ccccc1O)N/N=C/c1ccc(N(c2ccccc2)c2ccccc2)cc1	1.27

Compound	relative growth
Nc1ncnc(NCCN2CCOCC2)c1[N+](=O)[O-]	0.972
CCCCCC1C(=O)CCC1CC(=O)OC (stereo not drawn)	1.28
NCC[C@H]1CC[C@@H](NC(=O)C2CCCC2)[C@@H](CO)O1	1.07
C=C(CC)C(=O)c1ccc(OCC(=O)O)c(Cl)c1Cl	1.12
O=C(C[C@H]1CC[C@H](NS(=O)(=O)c2ccccc2)[C@H](CO)O1)NCc1ccncn1	1.04
CCS(=O)(=O)NCC[C@H]1CC[C@H](NC(=O)C2CCOCC2)[C@H](CO)O1	1
O=C(C[C@H]1C[C@H]2c3cc(NC(=O)Nc4ccc(C(F)(F)F)cc4)ccc3O[C@H]2[C@@H](CO)O1)NCc1ccc(Cl)cc1	0.777
Nc1ccc(S(=O)(=O)NC(=O)c2ccccc2)cc1	1.03
C[C@@H]1CN([C@H](C)CO)C(=O)CCCn2nncc2CO[C@H]1CN(C)Cc1ccc2c(c1)OCCN2C	0.916
CN(C)C(=O)C[C@@H]1C=C[C@H](NC(=O)C2CC2)[C@@H](CO)O1	0.929
Cc1ccc(S(=O)(=O)N(C)C[C@@H]2Oc3ncc(-c4ccncc4)cc3C(=O)N([C@H](C)CO)C[C@H]2C)cc1	0.995
Cc1ccc(S(=O)(=O)c2c[nH]c(=O)[nH]2)cc1	0.947
NC[C@H](c1ccco1)N1CCc2ccccc2C1	0.891
O=C1O[C@H](c2ccccc2)[C@H](c2ccccc2)N2[C@H]1[C@@H](C(=O)N1CCCCCCC1)[C@]1(C(=O)Nc3ccc(C#CCCO)cc31)[C@H]2c1ccc(OCCO)cc1	1.09
CC(=O)NCCCC[C@@H]1NC(=O)[C@@H]2C[C@H](C(=O)NCCCCCN)[C@H](c3cccc(OCCO)c3)N2C1=O	1.07
CCCCCCC#C[Si](O[C@H](c1ccccc1)c1cn([C@H](CO)Cc2ccccc2)nn1)(C(C)C)C(C)C	0.907
C1N2CN3CN1CN(C2)C3	0.97
O=C(O)C1=C[C@@H](O)[C@@H](O)[C@H](O)C1	0.942
c1ccc(Nc2nc3c(ccc4ccccc43)s2)cc1	1.18
C[Se]CC[C@H](N)C(=O)O	0.931

Compound	relative growth
CO[C@@H]1CN(C)C(=O)c2cc(NC(=O)NC(C)C)ccc2OC[C@H](C)N(Cc2ccc(-c3ccccn3)cc2)C[C@H]1C	1.11
N[C@@H](CC(=O)O)C(=O)O	0.926
O=C(N[C@@H]1CC[C@H](CCNS(=O)(=O)c2ccccc2)O[C@@H]1CO)c1cnccn1	1.07
CCCNC(=O)N1C[C@H](C)[C@H](OC)CN(C)C(=O)c2cc(NS(=O)(=O)CC(F)(F)F)ccc2OC[C@@H]1C	0.973
CCCNC(=O)C[C@@H]1CC[C@@H]2[C@H](COC[C@H](O)CN2S(=O)(=O)c2ccc(Oc3ccccc3)cc2)O1	0.977
Cc1ncc([N+](=O)[O-])n1C	0.906
CNc1ncnc2c1ncn2[C@@H]1O[C@H](CO)[C@@H](O)[C@H]1O	0.886
CC(=O)O[C@H]1CC[C@]2(C)C3CC[C@@]4(C)C(CC5O[C@@]6(CCC(C)CO6)[C@@H](C)C54)C3CC[C@@H]2C1 (stereo partly drawn)	1.06
Cc1nn(C)c(C)c1Nc1nnc(N)[nH]1	1.06
CCCCN1CNC(=S)NC1	0.783
CCC(C)C1NC(=O)C(CCN)NC(=O)C(NC(=O)C(CCN)NC(=O)C(NC(=O)C(CCN)NC(=O)CCCCC(C)C)C(C)O)CCNC(=O)C(C(C)O)NC(=O)C(CCN)NC(=O)C(CCN)NC(=O)C(C(C)CC)NC1=O.O=S(=O)(O)O.O=S(=O)(O)O (stereo not drawn)	0.134
O=C(C[C@H]1CC[C@@H](NC(=O)CN2CCOCC2)[C@@H](CO)O1)NC1CCC1	1.26
COCC(=O)N1C[C@@H](C)[C@H](OC)CN(C)C(=O)c2cc(NC(=O)Nc3ccccc3)ccc2OC[C@@H]1C	0.857
CN(C)CC/C=C1/c2ccccc2COc2ccc(CC(=O)O)cc21.Cl	0.144
C=CCc1ccc(O)c(OC)c1	0.683
COc1ccccc1CCCCN	0.803
O=S(=O)(NCC[C@H]1CC[C@H](NS(=O)(=O)c2cccc(Cl)c2)[C@@H](CO)O1)c1cccc(F)c1	0.998
CCc1nc2[nH]c(C)cc(=O)n2n1	0.924
